Measurements reported in ChEMBL document CHEMBL1147678, “Discovery of a potent, nonpolyglutamatable inhibitor of glycinamide ribonucleotide transformylase” (J Med Chem, 2006).

Target: T1, Trifunctional purine biosynthetic protein adenosine-3 (Homo sapiens, UniProt P22102)
T1 sequence (P22102 whole entry): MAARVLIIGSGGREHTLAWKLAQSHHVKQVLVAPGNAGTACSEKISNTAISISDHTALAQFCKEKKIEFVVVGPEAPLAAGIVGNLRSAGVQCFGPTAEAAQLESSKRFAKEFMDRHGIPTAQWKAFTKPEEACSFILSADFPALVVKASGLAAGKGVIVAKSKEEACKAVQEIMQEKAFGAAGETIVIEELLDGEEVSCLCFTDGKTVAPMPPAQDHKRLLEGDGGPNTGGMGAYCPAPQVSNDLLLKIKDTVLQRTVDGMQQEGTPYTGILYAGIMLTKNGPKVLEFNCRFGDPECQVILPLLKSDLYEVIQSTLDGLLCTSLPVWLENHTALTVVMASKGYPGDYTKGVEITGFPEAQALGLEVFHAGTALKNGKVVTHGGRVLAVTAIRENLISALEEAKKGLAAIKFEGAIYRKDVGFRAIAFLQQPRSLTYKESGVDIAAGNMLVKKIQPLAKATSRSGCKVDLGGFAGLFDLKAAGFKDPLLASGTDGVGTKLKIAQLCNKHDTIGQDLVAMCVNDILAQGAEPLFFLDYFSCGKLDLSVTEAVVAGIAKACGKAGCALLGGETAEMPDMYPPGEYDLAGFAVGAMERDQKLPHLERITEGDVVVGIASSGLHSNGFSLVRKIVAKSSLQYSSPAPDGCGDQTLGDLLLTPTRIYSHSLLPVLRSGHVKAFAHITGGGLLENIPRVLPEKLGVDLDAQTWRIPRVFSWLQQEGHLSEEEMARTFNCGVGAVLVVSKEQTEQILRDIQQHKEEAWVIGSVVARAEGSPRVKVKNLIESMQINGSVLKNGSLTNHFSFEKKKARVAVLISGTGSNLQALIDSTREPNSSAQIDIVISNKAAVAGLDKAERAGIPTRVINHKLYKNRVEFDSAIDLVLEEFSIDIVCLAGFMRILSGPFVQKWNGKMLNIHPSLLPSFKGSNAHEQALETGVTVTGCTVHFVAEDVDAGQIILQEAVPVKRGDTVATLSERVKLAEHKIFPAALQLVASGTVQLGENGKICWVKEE
Test: Inhibition of human recombinant GAR Tfase

Nc1nc(N)c(CCCC(C(=O)C(F)(F)F)c2ccc(C(=O)NC(CCC(=O)O)C(=O)O)cc2)c(=O)[nH]1 (stereo unspecified)
Ki: 30 nM
